This assay deals with EGFR on A549 cells. Description: Pretargeted live cell labeling with trans-cyclooctene cetuximab and tetrazine-VT680, confocal microscopy. The class given is cell-based, human. As to conditions: unlabeled cetuximab and tetrazine-VT680, or trans-cyclooctene-cetuximab and unlabeled VT680. The procedure:
Cetuximab (ImClone 2 mg/mL) was purchased and the solvent exchanged for 0.1M NaHCO3 buffered at pH 8.5 with a final concentration of 7 mg/mL. To 200 uL of this stock solution was added 10 uL of DMF. (E)-cyclooct-4-enyl 2,5-dioxopyrrolidin-1-yl carbonate was dissolved in anhydrous DMF to make a 40 mM stock solution. For conjugation, the appropriate excess of amine reactive trans-cyclooctene in DMF was aliquoted into the antibody solution, vortexed, and reacted overnight at 4° C. In the experiments reported, the final trans-cycloctene loadings of 1, 3, 5, and 6 correspond to using 2, 10, 30, and 100 equivalents of succinimidyl carbonate with respect to antibody. […]
A solution of antibody (1 mg/mL) in 0.1M NaHCO3 (pH 8.5) was incubated with 2 equivalents of fluorescent succinimidyl ester (VT680, AF555, or Dylight 488) for 2 hours. […] The number of fluorochromes per antibody was determined by spectrophotometric analysis and determined to be approximately 1 per antibody for all dye succinimidyl esters used.
The human lung adenocarcinoma epithelial cell line A549 was selected for all experiments due to its mid-level over-expression of EGFR. […] This protocol yielded an infection rate in excess of 80% (determined by visual assessment using fluorescence microscopy). […]
Direct labeling of the antibodies with AF555 was monitored in the red channel. […]

In the case of “trans-cyclooctene-cetuximab: anti-EGFR antibody (cetuximab) labeled with trans-cyclooctene succinimidyl carbonate; loadings of 1, 3, 5 and 6 per antibody”, the “NIR fluorescence in control experiments” value is “no NIR fluorescence”.

These data come from patent US8900549B2, “Compositions and methods for delivering a substance to a biological target” (The General Hospital Corporation, priority 2008, dated 2014).
